In PubChem BioAssay (NCI):
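Values below derive from 48-hour exposures of cells grown in 96-well plates, with endpoints linearly interpolated between the two concentrations bracketing the appropriate inhibition level. The concentration for 50% growth inhibition is given as GI50. TGI marks complete inhibition of growth.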

How the values were obtained:
Experiment in all cases: growth of human tumour cells (NCI), 48 h
MDA-N = system: MDA-N
OVCAR-3 ovarian = system: OVCAR-3 ovarian
MDA-MB-231 breast = system: MDA-MB-231 breast
MOLT-4 leukemia = system: MOLT-4 leukemia
SK-MEL-5 melanoma = system: SK-MEL-5 melanoma
UO-31 renal = system: UO-31 renal
HOP-92 NSCLC = system: HOP-92 NSCLC
A549 NSCLC = system: A549 NSCLC
LOX IMVI melanoma = system: LOX IMVI melanoma
HT29 colon = system: HT29 colon
SR leukemia = system: SR leukemia
TK-10 renal = system: TK-10 renal
HCT-116 colon = system: HCT-116 colon
NCI/ADR-RES ovarian = system: NCI/ADR-RES ovarian
KM12 colon = system: KM12 colon
MALME-3M melanoma = system: MALME-3M melanoma
U251 CNS = system: U251 CNS
MDA-MB-435 = system: MDA-MB-435
CAKI-1 renal = system: CAKI-1 renal
NCI-H226 lung = system: NCI-H226 lung
SNB-19 CNS = system: SNB-19 CNS
M14 melanoma = system: M14 melanoma
NCI-H460 lung = system: NCI-H460 lung
DU-145 prostate = system: DU-145 prostate
BT-549 breast = system: BT-549 breast
SF-268 CNS = system: SF-268 CNS
OVCAR-4 ovarian = system: OVCAR-4 ovarian
OVCAR-5 ovarian = system: OVCAR-5 ovarian
IGROV1 ovarian = system: IGROV1 ovarian
ACHN renal = system: ACHN renal
COLO 205 colon = system: COLO 205 colon
MCF7 breast = system: MCF7 breast
UACC-257 melanoma = system: UACC-257 melanoma
NCI-H322M lung = system: NCI-H322M lung
NCI-H522 lung = system: NCI-H522 lung
OVCAR-8 ovarian = system: OVCAR-8 ovarian
786-0 renal = system: 786-0 renal
SW-620 colon = system: SW-620 colon
NCI-H23 lung = system: NCI-H23 lung
SK-MEL-2 melanoma = system: SK-MEL-2 melanoma
K-562 leukemia = system: K-562 leukemia
HCT-15 colon = system: HCT-15 colon
HOP-62 NSCLC = system: HOP-62 NSCLC
RXF 393 renal = system: RXF 393 renal
A498 renal = system: A498 renal
RPMI-8226 leukemia = system: RPMI-8226 leukemia
HL-60(TB) leukemia = system: HL-60(TB) leukemia
UACC-62 melanoma = system: UACC-62 melanoma
HS 578T breast = system: HS 578T breast
PC-3 prostate = system: PC-3 prostate
HCC-2998 colon = system: HCC-2998 colon
SNB-75 CNS = system: SNB-75 CNS
SK-MEL-28 melanoma = system: SK-MEL-28 melanoma
SF-295 CNS = system: SF-295 CNS
T-47D breast = system: T-47D breast
SF-539 CNS = system: SF-539 CNS
SK-OV-3 ovarian = system: SK-OV-3 ovarian
SN12C renal = system: SN12C renal
CCRF-CEM leukemia = system: CCRF-CEM leukemia
EKVX NSCLC = system: EKVX NSCLC

## NC(=O)Nc1ccc([As](=O)(O)O)cc1
MDA-N
  GI50: > 100000 nM
  TGI: > 100000 nM
OVCAR-3 ovarian
  GI50: > 100000 nM
  TGI: > 100000 nM
MDA-MB-231 breast
  GI50: > 100000 nM
  TGI: > 100 µM
MOLT-4 leukemia
  GI50: > 100000 nM
  TGI: > 100 µM
SK-MEL-5 melanoma
  GI50: > 100000 nM
  TGI: > 100000 nM
UO-31 renal
  GI50: > 100000 nM
  TGI: > 100000 nM
HOP-92 NSCLC
  GI50: > 100000 nM
  TGI: > 100 µM
A549 NSCLC
  GI50: > 100000 nM
  TGI: > 100 µM
LOX IMVI melanoma
  GI50: > 100000 nM
  TGI: > 100000 nM
HT29 colon
  GI50: > 100000 nM
  TGI: > 100000 nM
SR leukemia
  GI50: > 100000 nM
  TGI: > 100000 nM
TK-10 renal
  GI50: > 100000 nM
  TGI: > 100000 nM
HCT-116 colon
  GI50: > 100000 nM
  TGI: > 100000 nM
NCI/ADR-RES ovarian
  GI50: > 100000 nM
  TGI: > 100000 nM
KM12 colon
  GI50: > 100000 nM
  TGI: > 100 µM
MALME-3M melanoma
  GI50: > 100000 nM
  TGI: > 100000 nM
U251 CNS
  GI50: > 100000 nM
  TGI: > 100000 nM
MDA-MB-435
  GI50: > 100000 nM
  TGI: > 100000 nM
CAKI-1 renal
  GI50: > 100000 nM
  TGI: > 100000 nM
NCI-H226 lung
  GI50: > 100000 nM
  TGI: > 100000 nM
SNB-19 CNS
  GI50: > 100000 nM
  TGI: > 100 µM
M14 melanoma
  GI50: > 100000 nM
  TGI: > 100000 nM
NCI-H460 lung
  GI50: > 100000 nM
  TGI: > 100 µM
DU-145 prostate
  GI50: > 100000 nM
  TGI: > 100000 nM
BT-549 breast
  GI50: > 100000 nM
  TGI: > 100000 nM
SF-268 CNS
  GI50: > 100000 nM
  TGI: > 100000 nM
OVCAR-4 ovarian
  GI50: > 100000 nM
  TGI: > 100000 nM
OVCAR-5 ovarian
  GI50: > 100000 nM
  TGI: > 100000 nM
IGROV1 ovarian
  GI50: > 100000 nM
  TGI: > 100000 nM
ACHN renal
  GI50: > 100000 nM
  TGI: > 100000 nM
COLO 205 colon
  GI50: > 100000 nM
  TGI: > 100000 nM
MCF7 breast
  GI50: > 100000 nM
  TGI: > 100000 nM
UACC-257 melanoma
  GI50: > 100000 nM
  TGI: > 100000 nM
NCI-H322M lung
  GI50: > 100000 nM
  TGI: > 100 µM
NCI-H522 lung
  GI50: > 100000 nM
  TGI: > 100000 nM
OVCAR-8 ovarian
  GI50: > 100000 nM
  TGI: > 100000 nM
786-0 renal
  GI50: > 100000 nM
  TGI: > 100000 nM
SW-620 colon
  GI50: > 100000 nM
  TGI: > 100 µM
NCI-H23 lung
  GI50: > 100000 nM
  TGI: > 100000 nM
SK-MEL-2 melanoma
  GI50: > 100000 nM
  TGI: > 100000 nM
K-562 leukemia
  GI50: > 100000 nM
  TGI: > 100 µM
HCT-15 colon
  GI50: > 100000 nM
  TGI: > 100000 nM
HOP-62 NSCLC
  GI50: > 100000 nM
  TGI: > 100 µM
RXF 393 renal
  GI50: > 100000 nM
  TGI: > 100000 nM
A498 renal
  GI50: > 100000 nM
  TGI: > 100000 nM
RPMI-8226 leukemia
  GI50: > 100 µM
  TGI: > 100 µM
HL-60(TB) leukemia
  GI50: > 100000 nM
  TGI: > 100000 nM
UACC-62 melanoma
  GI50: > 100000 nM
  TGI: > 100000 nM
HS 578T breast
  GI50: > 100000 nM
  TGI: > 100000 nM
PC-3 prostate
  GI50: > 100 µM
  TGI: > 100 µM
HCC-2998 colon
  GI50: > 100000 nM
  TGI: > 100000 nM
SNB-75 CNS
  GI50: > 100000 nM
  TGI: > 100000 nM
SK-MEL-28 melanoma
  GI50: > 100000 nM
  TGI: > 100000 nM
SF-295 CNS
  GI50: > 100000 nM
  TGI: > 100 µM
T-47D breast
  GI50: > 100000 nM
  TGI: > 100000 nM
SF-539 CNS
  GI50: > 100000 nM
  TGI: > 100000 nM
SK-OV-3 ovarian
  GI50: > 100000 nM
  TGI: > 100 µM
SN12C renal
  GI50: > 100000 nM
  TGI: > 100000 nM
CCRF-CEM leukemia
  GI50: > 100000 nM
  TGI: > 100 µM
EKVX NSCLC
  GI50: > 100000 nM
  TGI: > 100 µM

## C[As](C)Sc1ccccc1C(=O)O
MDA-N
  GI50: 119 nM
  TGI: 1320 nM
OVCAR-3 ovarian
  GI50: 181 nM
  TGI: 753 nM
MDA-MB-231 breast
  GI50: 456 nM
  TGI: 6.42 µM
MOLT-4 leukemia
  GI50: 136 nM
  TGI: 32.3 µM
SK-MEL-5 melanoma
  GI50: 282 nM
  TGI: 840 nM
UO-31 renal
  GI50: 93.1 nM
  TGI: 557 nM
HOP-92 NSCLC
  GI50: 2900 nM
  TGI: 13.9 µM
A549 NSCLC
  GI50: 670 nM
  TGI: 3.12 µM
LOX IMVI melanoma
  GI50: 227 nM
  TGI: 1020 nM
HT29 colon
  GI50: 253 nM
  TGI: 922 nM
SR leukemia
  GI50: 86.1 nM
  TGI: 1010 nM
TK-10 renal
  GI50: 116 nM
  TGI: 665 nM
HCT-116 colon
  GI50: 332 nM
  TGI: 1480 nM
NCI/ADR-RES ovarian
  GI50: 233 nM
  TGI: 673 nM
KM12 colon
  GI50: 984 nM
  TGI: 11.3 µM
MALME-3M melanoma
  GI50: 70.9 nM
  TGI: 305 nM
U251 CNS
  GI50: 482 nM
  TGI: 2230 nM
MDA-MB-435
  GI50: 89.4 nM
  TGI: 358 nM
CAKI-1 renal
  GI50: 75.6 nM
  TGI: 472 nM
NCI-H226 lung
  GI50: 280 nM
  TGI: 1210 nM
SNB-19 CNS
  GI50: 1140 nM
  TGI: 6.64 µM
M14 melanoma
  GI50: 295 nM
  TGI: 1100 nM
NCI-H460 lung
  GI50: 2790 nM
  TGI: 11.3 µM
DU-145 prostate
  GI50: 230 nM
  TGI: 710 nM
BT-549 breast
  GI50: 569 nM
  TGI: 1840 nM
SF-268 CNS
  GI50: 511 nM
  TGI: 2830 nM
OVCAR-4 ovarian
  GI50: 314 nM
  TGI: 2030 nM
OVCAR-5 ovarian
  GI50: 246 nM
  TGI: 1640 nM
IGROV1 ovarian
  GI50: 252 nM
  TGI: 688 nM
ACHN renal
  GI50: 210 nM
  TGI: 1240 nM
COLO 205 colon
  GI50: 420 nM
  TGI: 1700 nM
MCF7 breast
  GI50: 225 nM
  TGI: 823 nM
UACC-257 melanoma
  GI50: 366 nM
  TGI: 2860 nM
NCI-H322M lung
  GI50: 2190 nM
  TGI: 7.43 µM
NCI-H522 lung
  GI50: 31 nM
  TGI: 111 nM
OVCAR-8 ovarian
  GI50: 289 nM
  TGI: 1130 nM
786-0 renal
  GI50: 336 nM
  TGI: 1260 nM
SW-620 colon
  GI50: 439 nM
  TGI: 6.45 µM
NCI-H23 lung
  GI50: 182 nM
  TGI: 2590 nM
SK-MEL-2 melanoma
  GI50: 175 nM
  TGI: 516 nM
K-562 leukemia
  GI50: 358 nM
  TGI: 42.8 µM
HCT-15 colon
  GI50: 96.6 nM
  TGI: 1240 nM
HOP-62 NSCLC
  GI50: 1080 nM
  TGI: 4.87 µM
RXF 393 renal
  GI50: 233 nM
  TGI: 1390 nM
A498 renal
  GI50: 320 nM
  TGI: 1940 nM
RPMI-8226 leukemia
  GI50: 11.5 µM
  TGI: 31.5 µM
HL-60(TB) leukemia
  GI50: 151 nM
  TGI: 2490 nM
UACC-62 melanoma
  GI50: 278 nM
  TGI: 1520 nM
HS 578T breast
  GI50: 267 nM
  TGI: 948 nM
PC-3 prostate
  GI50: 3.76 µM
  TGI: > 100 µM
HCC-2998 colon
  GI50: 653 nM
  TGI: 2290 nM
SNB-75 CNS
  GI50: 661 nM
  TGI: 1560 nM
SK-MEL-28 melanoma
  GI50: 135 nM
  TGI: 497 nM
SF-295 CNS
  GI50: 2610 nM
  TGI: 8.8 µM
T-47D breast
  GI50: 46 nM
  TGI: 1790 nM
SF-539 CNS
  GI50: 52 nM
  TGI: 228 nM
SK-OV-3 ovarian
  GI50: 1980 nM
  TGI: 11.4 µM
SN12C renal
  GI50: 319 nM
  TGI: 1340 nM
CCRF-CEM leukemia
  GI50: 2780 nM
  TGI: 14.5 µM
EKVX NSCLC
  GI50: 485 nM
  TGI: 3.95 µM
